The chains behind the UniProt entries cited, without tags or fusion partners. Residues count along the entry.
UniProt O95619, 1-148: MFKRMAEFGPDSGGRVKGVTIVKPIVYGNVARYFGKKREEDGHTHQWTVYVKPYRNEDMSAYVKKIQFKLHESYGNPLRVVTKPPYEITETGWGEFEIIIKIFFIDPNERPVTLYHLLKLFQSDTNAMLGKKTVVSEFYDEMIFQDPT

The assay deals with GAS41 YEATS domain (GST-GAS41(1-148)) (Homo sapiens, UniProt O95619). Nature of the assay: biochemical.
Take `O=C(Nc1ccc(C(=O)N2CC(c3ncc(-c4ccc(Cn5cccn5)cc4)s3)C2)s1)[C@@H]1CCCN1` [Compound 234]: the IC50 (commonly the concentration needed to halve the response being measured) is less than 2 µM.

In turn, `O=C(Nc1ccc(C(=O)N2CCCC2)s1)[C@@H]1C[C@H](F)CN1` [Compound 32] gave an IC50 greater than 50 µM.

`Nc1ccc2scc(C3CN(C(=O)c4ccc(NC(=O)[C@@H]5CCCN5)s4)C3)c2c1` [Compound 103] came in with an IC50 of 10 to 50 µM.

For `CC(N)c1ccc(C(=O)N2CCCC2)s1` (stereo not drawn) [Compound 8], the IC50 was greater than 50 µM.

In the case of `O=C(c1ccc(N2CCC3(CCCN3)C2=O)s1)N1CC(c2ncc(-c3ccccc3)s2)C1` (stereo not drawn) [Compound 239], the IC50 lay in the range of 2 to 10 µM.

In the case of `COc1cccc(-c2cnc(C3CN(C(=O)c4ccc(NC(=O)[C@@H]5CCCN5)s4)C3)s2)c1` [Compound 95], the IC50 was 2 to 10 µM.

Molecule `CCN(CC)c1ccc2scc(C3CN(C(=O)c4ccc(NC(=O)[C@@H]5CCCN5)s4)C3)c2c1` [Compound 82] showed an IC50 of 10 to 50 µM.

As for `O=C(Nc1ccc(C(=O)N2CC(Oc3ccnc4ccccc34)C2)s1)C1CCCN1` (stereo not drawn) [Compound 41], the IC50 is 10 to 50 µM.

The molecule `O=C(Nc1ccc(C(=O)N2CC(Oc3ccnc4ccc(F)cc34)C2)s1)[C@@H]1CCCN1` [Compound 61] showed an IC50 of 10 to 50 µM.

For `O=C(Nc1ccc(C(=O)N2CC(c3ccncc3)C2)s1)[C@@H]1CCCN1` [Compound 86], the IC50 lay in the range of 2 to 10 µM.

Consider `CC1(C)CC[C@@H](C(=O)Nc2ccc(C(=O)N3CCCC3)s2)N1` [Compound 55], for which the IC50 is greater than 50 µM.

Molecule `Nc1ccccc1-c1cnc(C2CN(C(=O)c3ccc(NC(=O)[C@@H]4CCCN4)s3)C2)s1` [Compound 107] gave an IC50 of less than 2 µM.

With `O=C(Nc1ccc(C(=O)N2CC(c3cncc(Cl)c3)C2)s1)C1CCCN1` (stereo not drawn) [Compound 47], the IC50 was in the range of 10 to 50 µM.

The molecule `O=C(Nc1ccc(C(=O)N2CC(c3ncc(-c4cccc5c4ccn5CC4CNC4)s3)C2)s1)[C@@H]1CCCN1` [Compound 116] gave an IC50 of less than 2 µM.

`O=C(Nc1ccc(C(=O)N2CC(Oc3ccnc4ccc(Cl)cc34)C2)s1)[C@@H]1CCCN1` [Compound 87] returned an IC50 of 2 to 10 µM.

`O=C(c1ccc(CNS(=O)(=O)c2ccccc2)s1)N1CCCC1` [Compound 17] showed an IC50 greater than 50 µM.

In the case of `O=C(Nc1ccc(C(=O)N2CC(c3cc4ccccc4s3)C2)s1)[C@@H]1CCCN1` [Compound 62], the IC50 was 10 to 50 µM.

The molecule `CC(=O)NCc1ccc(-c2cnc(C3CN(C(=O)c4ccc(NC(=O)[C@@H]5CCCN5)s4)C3)s2)cc1C1CN(C(C)C)C1` [Compound 243] gave an IC50 of less than 2 µM.

Regarding `O=C(NCc1ccc(C(=O)N2CC(Oc3ccncc3)C2)s1)c1ccccc1` [Compound 35], the half-maximal inhibitory concentration (IC50) was greater than 50 µM.

In turn, `O=C(NCc1ccc(C(=O)N2CCC(OCc3ccccc3)C2)s1)c1ccccc1` (stereo not drawn) [Compound 5] showed an IC50 greater than 50 µM.

Consider `O=C(c1ccc(NCC2CNC2)s1)N1CCCC1` [Compound 22], for which the IC50 is greater than 50 µM.

As to `CC(=O)NCc1ccc(-c2cnc(C3CN(C(=O)c4ccc(NC(=O)[C@@H]5CCCN5)s4)C3)s2)cc1C1CN(C)C1` [Compound 242], the half-maximal inhibitory concentration (IC50) was less than 2 µM.

Take `CN[C@H](C)C(=O)Nc1ccc(C(=O)N2CCCC2)s1` [Compound 28]: the IC50 is greater than 50 µM.

`O=C(Nc1ccc(C(=O)N2CC(F)(c3ccccc3)C2)s1)[C@@H]1CCCN1` [Compound 67] came in with an IC50 of 10 to 50 µM.

In turn, `O=C(Nc1ccc(C(=O)N2CC(c3ncc(-c4cccc5[nH]ccc45)s3)C2)s1)[C@@H]1CCCN1` [Compound 109] yielded an IC50 of less than 2 µM.

`O=C(Nc1ccc(C(=O)N2CC(c3nc4ccc(Cl)cc4s3)C2)s1)[C@@H]1CCCN1` [Compound 89] had an IC50 of 2 to 10 µM.

Take `O=C(Nc1ccc(C(=O)N2CC(c3ncc(-c4ccccc4Cl)s3)C2)s1)[C@@H]1CCCN1` [Compound 97]: the IC50 was 2 to 10 µM.

As to `O=C(Nc1ccc(C(=O)N2CCCC2)s1)[C@@H]1Cc2ccccc2N1` [Compound 33], the IC50 is greater than 50 µM.

`O=C(c1cc2c(s1)N(C(=O)[C@@H]1CCCN1)CC2)N1CC(c2nccs2)C1` [Compound 79] yielded a concentration for half-maximal inhibition (IC50) of 10 to 50 µM.

The molecule `O=C(Nc1ccc(C(=O)N2CCCC2)s1)C1CCCN1` (stereo not drawn) [Compound 38] displayed an IC50 of 10 to 50 µM.

`CCC(CC)C(=O)N(C)Cc1ccc(-c2cnc(C3CN(C(=O)c4ccc(NC(=O)[C@@H]5CCCN5)s4)C3)s2)cc1` [Compound 238]: the IC50 lay within 2 to 10 µM.

`O=C(Nc1ccc(C(=O)N2CC(c3ncc(-c4ccncc4)s3)C2)s1)[C@@H]1CCCN1` [Compound 96] had an IC50 of less than 2 µM.

Molecule `O=C(NCc1ccc(C(=O)N2CCC(Oc3nccs3)C2)s1)c1ccccc1` (stereo not drawn) [Compound 6] displayed an IC50 greater than 50 µM.

For `O=C(Nc1ccc(C(=O)N2CC(Oc3ccncc3Cl)C2)s1)C1CNC1` [Compound 21], the half-inhibitory concentration (IC50) was greater than 50 µM.

`CCCCOC1CCN(C(=O)c2ccc(CNC(C)=O)s2)C1` (stereo not drawn) [Compound 1]: the IC50 is greater than 50 µM.

In turn, `CC(=O)NCc1ccc(-c2cnc(C3CN(C(=O)c4ccc(NC(=O)[C@@H]5CCCN5)s4)C3)s2)cc1CC1CNC1` [Compound 246] displayed an IC50 of less than 2 µM.

With `O=C(Nc1ccc(C(=O)N2CC(N3CCc4ccccc43)C2)s1)[C@@H]1CCCN1` [Compound 99], the IC50 lay in the range of 2 to 10 µM.

In the case of `Cc1cc(OC2CN(C(=O)c3ccc(CNC(=O)c4ccccc4)s3)C2)ccn1` [Compound 19], the IC50 was greater than 50 µM.

`Nc1cccc(C2CN(C(=O)c3ccc(NC(=O)[C@@H]4CCCN4)s3)C2)c1` [Compound 77]: the IC50 fell in the range of 10 to 50 µM.

`O=C(Nc1ccc(C(=O)N2CC(Cc3ccnc4ccc(Cl)cc34)C2)s1)[C@@H]1CCCN1` [Compound 91]: the IC50 is 2 to 10 µM.

Molecule `CCCCOC1CCN(C(=O)c2ccc(CNC(=O)c3ccccc3)s2)C1` (stereo not drawn) [Compound 4] yielded an IC50 greater than 50 µM.

`CC(=O)NCc1ccc(C(=O)N2CCCC2)s1` [Compound 10] showed an IC50 greater than 50 µM.

As for `Cn1cc(C2CN(C(=O)c3ccc(NC(=O)[C@@H]4CCCN4)s3)C2)c2cc(N)ccc21` [Compound 81], the IC50 fell in the range of 2 to 10 µM.

In turn, `O=C(NCc1ccc(C(=O)N2CCCC2)s1)c1ccccc1` [Compound 7] yielded an IC50 greater than 50 µM.

`O=C(NCc1ccc(-c2cnc(C3CN(C(=O)c4ccc(NC(=O)[C@@H]5CCCN5)s4)C3)s2)cc1)c1ccccc1` [Compound 130] gave an IC50 of less than 2 µM.

For the molecule `O=C(Nc1ccc(C(=O)N2CC(c3ncc(-c4cccc(C5CCCN5)c4)s3)C2)s1)[C@@H]1CCCN1` (stereo partly drawn) [Compound 127], the IC50 lay within 2 to 10 µM.

Consider `CN[C@@H](C)C(=O)Nc1ccc(C(=O)N2CCCC2)s1` [Compound 27], for which the IC50 is greater than 50 µM.

In the case of `O=C(Nc1ccc(C(=O)N2CCCC2)s1)[C@H]1NCC[C@@H]1O` [Compound 208], the IC50 was in the range of 10 to 50 µM.

On to `O=C(Nc1ccc(C(=O)N2CCCC2)s1)C1CCN1` (stereo not drawn) [Compound 37, N-(5-(pyrrolidine-1-carbonyl)thiophen-2-yl)azetidine-2-carboxamide], for which the IC50 lay in the range of 10 to 50 µM.

Regarding `CC(=O)NCc1ccc(C(=O)N2CCC(Oc3nccs3)C2)s1` (stereo not drawn) [Compound 3], the IC50 is greater than 50 µM.

`CC(=O)NCc1ccc(C(=O)N2CCC(OCc3ccccc3)C2)s1` (stereo not drawn) [Compound 2] returned a half-inhibitory concentration (IC50) greater than 50 µM.

`CCN(C(=O)[C@@H]1CCCN1)c1ccc(C(=O)N2CC(c3ncc(-c4ccccc4)s3)C2)s1` [Compound 104] came in with an IC50 of 10 to 50 µM.

Turning to `O=C(Nc1ccc(C(=O)N2CCCC2)s1)[C@@H]1CCCN1` [Compound 44, (S)—N-(5-(pyrrolidine-1-carbonyl)thiophen-2-yl)pyrrolidine-2-carboxamide], the half-maximal inhibitory concentration (IC50) lay within 10 to 50 µM.

In turn, `O=C(Nc1ccc(C(=O)N2CC3(CC(Oc4nccs4)C3)C2)s1)[C@@H]1CCCN1` [Compound 115] yielded an IC50 of 10 to 50 µM.

Take `O=C(Cc1c[nH]cn1)NCc1ccc(C(=O)N2CCCC2)s1` [Compound 18]: the IC50 is greater than 50 µM.

With `O=C(Nc1ccc(C(=O)N2CC3(CC(Oc4ccccc4)C3)C2)s1)[C@@H]1CCCN1` [Compound 120], the half-maximal inhibitory concentration (IC50) was in the range of 2 to 10 µM.

The molecule `CC(=O)NCc1ccc(-c2cnc(C3CN(C(=O)c4ccc(N5CCC6(CCCN6)C5=O)s4)C3)s2)cc1` (stereo not drawn) [Compound 244] displayed an IC50 of less than 2 µM.

For `O=C(Nc1ccc(C(=O)N2CC3(CC(c4nccs4)C3)C2)s1)[C@@H]1CCCN1` [Compound 121], the IC50 lay within 2 to 10 µM.

Take `O=C(NCc1ccc(-c2cnc(C3CN(C(=O)c4ccc(NC(=O)[C@@H]5CCCN5)s4)C3)s2)cc1)C1CCCC1` [Compound 131]: the IC50 is less than 2 µM.

`O=C(Nc1ccc(C(=O)N2CC(c3ncc(-c4cccc(Cl)c4)s3)C2)s1)[C@@H]1CCCN1` [Compound 73] displayed an IC50 of 2 to 10 µM.

`O=C(Nc1ccc(C(=O)N2CC3(CC(c4ccncc4)C3)C2)s1)[C@@H]1CCCN1` [Compound 122] came in with an IC50 of 2 to 10 µM.

In the case of `O=C(Nc1ccc(C(=O)N2CC(Nc3ccncc3)C2)s1)[C@@H]1CCCN1` [Compound 50], the IC50 is greater than 50 µM.

Turning to `O=C(Nc1ccc(C(=O)N2CCCC2)s1)[C@@H]1CC2(CC2)CN1` [Compound 58], the half-inhibitory concentration (IC50) lay in the range of 10 to 50 µM.

`CC(=O)NCc1ccc(-c2cnc(C3CN(C(=O)c4ccc(NC(=O)[C@@H]5CCCN5)s4)C3)s2)cc1C1CCNCC1` [Compound 245] had an IC50 of less than 2 µM.

`CC(=O)NCc1ccc(-c2cnc(C3CN(C(=O)c4ccc(NC(=O)[C@@H]5CCCN5)s4)C3)s2)cc1C1CNC1` [Compound 236] yielded an IC50 of less than 2 µM.

On to `Cc1nccc(OC2CN(C(=O)c3ccc(NC(=O)C4CCCN4)s3)C2)c1Cl` (stereo not drawn) [Compound 42], for which the 50% inhibitory concentration (IC50) lay in the range of 10 to 50 µM.

`O=C(Nc1ccc(C(=O)N2CCCC2)s1)[C@@H]1C[C@@H](O)CN1` [Compound 54]: the IC50 was in the range of 10 to 50 µM.

The molecule `O=C(Nc1ccc(C(=O)N2CC(C(F)c3ccccc3)C2)s1)[C@@H]1CCCN1` (stereo partly drawn) [Compound 72] registered an IC50 of 10 to 50 µM.

`COC(C)(C)c1ccc(C(=O)N2CC(Oc3ccncc3)C2)s1` [Compound 15] had an IC50 greater than 50 µM.

In turn, `C#CCO[C@H]1CN[C@H](C(=O)Nc2ccc(C(=O)N3CCCC3)s2)C1` [Compound 60] returned an IC50 of 10 to 50 µM.

Regarding `CCO[C@H]1CN[C@H](C(=O)Nc2ccc(C(=O)N3CCCC3)s2)C1` [Compound 57], the IC50 was greater than 50 µM.

`O=C(Nc1ccc(C(=O)N2CC(c3ncc(-c4cccc5[nH]cnc45)s3)C2)s1)[C@@H]1CCCN1` [Compound 117] yielded a 50% inhibitory concentration (IC50) of 2 to 10 µM.

The values are drawn from patent US11858925B2, “GAS41 inhibitors and methods of use thereof” (The Regents of the University of Michigan, priority 2020, dated 2024).
